# Source: PubChem BioAssay AID624171 (National Center for Advancing Translational Sciences (NCATS), 2012)
# “And” between values parts separate entries of the source, which are not always exact repeats. Equal entries are not always repeated. The list shows a part of the results, in another mix than the full data. Some of these compounds have results that are not shown, active ones among them. The source made the active and inactive calls. Calls come from the whole dose curve; as a rule, active = well fitted activation curve with a large enough effect; inconclusive = small, poorly fitted or top-dose-only effect; inactive = flat fitted curve, though single readings scatter.
# Experiment: qHTS of Nrf2 Activators; note: % of control where 0% means no effect; nearly all actives have a fitted effect of over 65% in size
# Conditions: AREc32 ARE-luciferase reporter (MCF7-derived line), luminescence, 24 h; at 46.1 µM (top of the series)
# From the text: Many diseases have some form of oxidative stress injury and ties to inflammation, causing a host of problems for the patient. The antioxidant response element (ARE) plays an important role in alleviating the harmful effects of oxidative stress. The antioxidant response element (ARE) is a transcriptional regulatory element involved in the activation of genes coding for a number of antioxidant proteins and detoxifying enzymes. These enzymes work in concert to protect tissues from oxidative insults and chemical toxicities in human hepatocytes and immune cells. The protective effects of ARE activation are primarily triggered through Nrf2 (NF-E2-related factor) binding to and activating AREs. It is known that Nrf2 controls the production of over 250 antioxidant and detoxification proteins (Hu et al., 2006), thereby protecting tissues by increasing cellular antioxidant content and suppressing inflammatory signaling pathways. The transcription factor Nrf2 is a central link between oxidative chemicals, such as phenolic antioxidants and electrophilic compounds, and the activation of ARE. Nrf2 levels are constitutively low as a consequence of its interaction with Keap1, which targets its degradation (Zipper and Mulcahy, 2002). Electrophiles react with key cysteine residues in Keap1, releasing Nrf2 and allowing its translocation to the nucleus. Once within the nucleus, Nrf2 complexes with coactivators such as p300, and binds to the AREs to induce gene transcription of cytoprotective enzymes, resulting in the prevention of toxicity. Activation of Nrf2 protects tissues by increasing cellular antioxidant content and suppressing inflammatory signaling pathways. Identifying novel and potent Nrf2 activators by using the AREc32 cell line to detect ARE activation by small molecules will lead to the identification and development of probes to study protective pathways in multiple tissues. These specific probes are essential to study the ARE pathway, and eventually to determine whether this pathway does activate genes that could protect against a host of diseases, including cardiovascular diseases, obesity, diabetes, Alzheimer's, and Parkinson's disease.
# This project's aim is to identify novel and potent Nrf2 activators by using the AREc32 cell line to detect ARE activation by small molecules, which will lead to the identification and development of probes to study the ARE pathway.
# NIH Chemical Genomics Center [NCGC]
# NIH Molecular Libraries Probe Centers Network [MLPCN]
# Assay Submitter (PI): Curtis Klaassen, University of Kansas Medical Center
# 5 uL of 1000 cells/well of AREc32_Fluc cells are seeded into 1536-well plate in OPTI-MEM medium with 5% FBS. The plates are incubated overnight at 37 deg C with 5% CO2. Then through pin tool transfer, 23 nL of compounds are added to each well before a 24 hr incubation at 37 deg C with 5% CO2. After the addition of 2.5 uL of Steady-Glo. the plates are kept at RT for 30 min, before they are read on the ViewLux.
row,Compound,activation
1,Cc1ccc(C(=O)NCC2(N3CCCCC3)CCCCC2)cc1,inactive: 0.0048%
2,CN(C)C1(CNC(=O)c2ccccc2F)CCCCC1,inactive: -1.16%
3,COc1cc(SC)ccc1C(=O)NCC1(N(C)C)CCCCC1,inactive: -0.664%
4,CN(C)C1(CNC(=O)c2cccc(Cl)c2)CCCCC1,inactive: -0.22%
5,CCN(CC)CC(C)C(C)OC(=O)C(O)(c1ccccc1)c1ccccc1 (stereo unspecified),inactive: -0.522%
6,CC(C)N1C(=O)CC2(CCN(CCOC(=O)C(O)(c3ccccc3)c3ccccc3)CC2)C1=O,inactive: -0.956%
7,CN1[C@@H]2CC[C@H]1CC(OC(=O)C(O)(c1ccccc1)c1ccccc1)C2 (stereo partly specified),inactive: -0.759%
8,O=C(NCC1(N2CCCCC2)CCCCC1)c1cc([N+](=O)[O-])ccc1Cl,inactive: -0.468%
9,CCOc1cccc(C(=O)NCC2(N(C)C)CCCCC2)c1,inactive: -1.05%
10,COc1ccc(C(=O)NCC2(N(C)C)CCCCC2)cc1,inactive: -0.393%
11,O=C(NCC1(N2CCCCC2)CCCCC1)c1cccc(Br)c1,inactive: 2.51%
12,Cc1cc(C(=O)NCC2(N3CCCCC3)CCCCC2)ccc1[N+](=O)[O-],inactive: -0.0115%
13,CCN1CCCC(OC(=O)C2(O)c3ccccc3C=Cc3ccccc32)C1 (stereo unspecified),inactive: 0.917%
14,O=C(NCC1(N2CCCCC2)CCCCC1)c1cc(F)c(F)cc1Cl,inactive: 0.245%
15,C=CCN1CCN(CCOC(=O)C(O)(c2ccccc2)c2ccccc2)CC1,inactive: -0.491%
16,CCCCOc1ccccc1C(=O)NCC1(N(C)C)CCCCC1,inactive: 0.828%
17,CN(C)C1CCCC1OC(=O)C(O)(c1ccccc1)c1ccccc1 (stereo unspecified),inactive: -0.975%
18,CN(C)c1ccc(C(=O)NCC2(N(C)C)CCCCC2)cc1,inactive: 0.176%

row,Compound,activation
1,CN(C)C1(CNC(=O)c2ccccc2[N+](=O)[O-])CCCCC1,inactive: -1.75%
2,Cc1ccccc1C(=O)NCC1(N2CCCCC2)CCCCC1,inactive: 0.761%
3,O=C(NCC1(N2CCCCC2)CCCCC1)c1cccc(Cl)c1,inactive: 0.331%
4,COc1ccc(Cl)cc1C(=O)NCC1(N(C)C)CCCCC1,inactive: 5.33%
5,COc1cccc(C(=O)NCC2(N3CCCCC3)CCCCC2)c1,inactive: -0.0447%
6,COc1ccc(C(=O)NCC2(N(C)C)CCCCC2)cc1Cl,inactive: 0.38%
7,COc1cc(C(=O)NCC2(N(C)C)CCCCC2)c([N+](=O)[O-])cc1OC,inactive: -1.32%
8,CN(C)C1(CNC(=O)c2ccc(Br)cc2)CCCCC1,inactive: -0.14%
9,O=C(OCCN1CCCC1)C(O)(c1ccccc1)c1ccccc1,inactive: -0.554%
10,CC(C)Oc1ccc(C(=O)NCC2(N(C)C)CCCCC2)cc1,inactive: 0.892% and inactive: -0.627%
11,CN(C)c1cccc(C(=O)NCC2(N(C)C)CCCCC2)c1,inactive: -0.648%
12,C=C(C)C#CC(O)(C(=O)OC1CCN(C)CC1)c1ccccc1 (stereo unspecified),inactive: 4.99%
13,COc1ccc(Br)c(C(=O)NCC2(N3CCCCC3)CCCCC2)c1,inactive: 0.126%
14,Cc1cccc(C(=O)NCC2(N(C)C)CCCCC2)c1,inactive: -0.544%
15,COc1cc(C(=O)NCC2(N(C)C)CCCCC2)cc(OC)c1OC,inactive: -0.533%
16,CC(C)COc1ccc(C(=O)NCC2(N(C)C)CCCCC2)cc1,inactive: 3.76%
17,COc1cccc(C(=O)NCC2(N3CCOCC3)CCCCC2)c1,inactive: -0.635%
18,O=C(OC1CN2CCC1CC2)C(CO)(c1ccccc1)c1ccccc1 (stereo unspecified),inactive: -0.0622%
